# Literature values in patent US20170027951A1, “METHODS AND COMPOSITIONS TO TREAT CANCERS INVOLVING EGFR” (Southern Research Institute, priority 2015, published 2017).
# Details: patients with mCRC, Karapetis et al. 2008; cited from earlier work
substance,measurement,value
cetuximab,patients with WT KRas who respond,12.8%
